Where two headings read alike, the source gives them in different places.
Details: rat, tail vein IV, 66.3 μmol/Kg target

Acetaminophen Plasma Mean (0.50 h): 25767 nmol/L | Acetaminophen Plasma Mean (1 h): 4823 nmol/L | Acetaminophen Plasma Mean (2 h): 933 nmol/L | Acetaminophen Plasma Mean (4 h): 986 nmol/L
Substance: acetaminophen

— US8722864B2 (Nutek Pharma Ltd., priority 2010, dated 2014)
